Laboratory results published in ChEMBL document CHEMBL1133088 (J Med Chem, 2000).

How the values were obtained:
[1] = Inhibition against MDA-MB-435 S human breast cancer cells in the presence of 30 mg/mL HSA; assay type: functional, cell-based
[2] = % lactone at different intervals of time in PBS with HSA suspension; assay type: ADME; settings: human, buffer
In short: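 Lactone-ring hydrolysis of 1 uM drug at 37 °C and pH 7.4, incubated in PBS, in PBS containing physiologically relevant HSA or albumin-free red blood cells, or in whole human blood. Isocratic acetonitrile/2% triethylamine acetate (pH 5.5) at 1 mL/min; lactone eluted near 7.0 min, carboxylate near 2.0 min.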

[3] = Inhibition against MDA-MB-435 S human breast cancer cells in the absence of albumin; assay type: functional, cell-based
In short: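 MDA-MB-435 S human breast cancer cells were grown without HSA for a 3-day growth assay with drug. Read-out was sulforhodamine B, which stains protein in cells and cell fragments still attached to the dish bottom, including dying or dead attached cells. IC50 was derived from the cell survival profiles.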

pIC50 [1]: 7.30
Lactone [2]: 6%
pIC50 [3]: 8.30
SMILES: CCc1c2c(nc3ccc(O)cc13)-c1cc3c(c(=O)n1C2)COC(=O)[C@]3(O)CC [7-ETHYL-10-HYDROXYCAMPTOTHECIN]

pIC50: −log10 of the molar value.
